Literature values in patent publication US20210008048A1, “COMPOSITIONS AND METHODS FOR CANCER TREATMENT” (Dana-Farber Cancer Institute, Inc., priority 2018, published 2021).
Several values for one entry are separate records, joined by “and”; a condition that tells them apart may be missing. Equal values may be shown once.

Legend:
TLR7 = biological target: T1, TLR7 (Homo sapiens, UniProt Q9NYK1); settings: cited from earlier work
T1 construct: expressed in transfected cells; host or cells: HEK293
T1 sequence (Q9NYK1 27-1049): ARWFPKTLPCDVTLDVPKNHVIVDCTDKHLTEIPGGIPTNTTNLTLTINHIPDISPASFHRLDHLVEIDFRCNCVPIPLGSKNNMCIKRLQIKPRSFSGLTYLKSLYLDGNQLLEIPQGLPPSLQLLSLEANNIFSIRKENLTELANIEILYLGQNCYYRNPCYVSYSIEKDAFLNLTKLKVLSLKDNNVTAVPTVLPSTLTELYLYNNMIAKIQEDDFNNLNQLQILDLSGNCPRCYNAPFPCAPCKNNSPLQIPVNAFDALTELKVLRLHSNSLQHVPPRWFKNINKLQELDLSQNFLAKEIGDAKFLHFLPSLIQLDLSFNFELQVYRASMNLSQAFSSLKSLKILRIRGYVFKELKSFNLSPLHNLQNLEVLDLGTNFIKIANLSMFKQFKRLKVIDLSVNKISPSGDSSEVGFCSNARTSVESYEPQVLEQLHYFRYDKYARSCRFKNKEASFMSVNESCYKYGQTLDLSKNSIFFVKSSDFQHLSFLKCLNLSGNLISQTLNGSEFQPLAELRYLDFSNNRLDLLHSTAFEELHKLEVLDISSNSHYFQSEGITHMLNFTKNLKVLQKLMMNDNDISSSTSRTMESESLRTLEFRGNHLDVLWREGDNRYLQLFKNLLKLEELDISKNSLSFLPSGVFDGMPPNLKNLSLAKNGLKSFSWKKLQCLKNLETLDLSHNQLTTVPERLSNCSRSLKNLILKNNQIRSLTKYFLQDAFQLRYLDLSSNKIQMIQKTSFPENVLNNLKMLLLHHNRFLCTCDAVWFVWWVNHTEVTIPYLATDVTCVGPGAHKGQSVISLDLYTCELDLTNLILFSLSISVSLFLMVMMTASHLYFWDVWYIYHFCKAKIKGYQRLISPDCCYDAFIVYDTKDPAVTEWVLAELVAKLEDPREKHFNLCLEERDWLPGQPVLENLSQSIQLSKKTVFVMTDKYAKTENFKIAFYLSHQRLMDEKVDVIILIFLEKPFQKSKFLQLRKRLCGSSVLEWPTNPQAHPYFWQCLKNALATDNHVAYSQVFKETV

TLR8 = biological target: T2, TLR8 (Homo sapiens, UniProt Q9NR97); settings: cited from earlier work
T2 construct: expressed in transfected cells; host or cells: HEK293
T2 sequence (Q9NR97 27-1041): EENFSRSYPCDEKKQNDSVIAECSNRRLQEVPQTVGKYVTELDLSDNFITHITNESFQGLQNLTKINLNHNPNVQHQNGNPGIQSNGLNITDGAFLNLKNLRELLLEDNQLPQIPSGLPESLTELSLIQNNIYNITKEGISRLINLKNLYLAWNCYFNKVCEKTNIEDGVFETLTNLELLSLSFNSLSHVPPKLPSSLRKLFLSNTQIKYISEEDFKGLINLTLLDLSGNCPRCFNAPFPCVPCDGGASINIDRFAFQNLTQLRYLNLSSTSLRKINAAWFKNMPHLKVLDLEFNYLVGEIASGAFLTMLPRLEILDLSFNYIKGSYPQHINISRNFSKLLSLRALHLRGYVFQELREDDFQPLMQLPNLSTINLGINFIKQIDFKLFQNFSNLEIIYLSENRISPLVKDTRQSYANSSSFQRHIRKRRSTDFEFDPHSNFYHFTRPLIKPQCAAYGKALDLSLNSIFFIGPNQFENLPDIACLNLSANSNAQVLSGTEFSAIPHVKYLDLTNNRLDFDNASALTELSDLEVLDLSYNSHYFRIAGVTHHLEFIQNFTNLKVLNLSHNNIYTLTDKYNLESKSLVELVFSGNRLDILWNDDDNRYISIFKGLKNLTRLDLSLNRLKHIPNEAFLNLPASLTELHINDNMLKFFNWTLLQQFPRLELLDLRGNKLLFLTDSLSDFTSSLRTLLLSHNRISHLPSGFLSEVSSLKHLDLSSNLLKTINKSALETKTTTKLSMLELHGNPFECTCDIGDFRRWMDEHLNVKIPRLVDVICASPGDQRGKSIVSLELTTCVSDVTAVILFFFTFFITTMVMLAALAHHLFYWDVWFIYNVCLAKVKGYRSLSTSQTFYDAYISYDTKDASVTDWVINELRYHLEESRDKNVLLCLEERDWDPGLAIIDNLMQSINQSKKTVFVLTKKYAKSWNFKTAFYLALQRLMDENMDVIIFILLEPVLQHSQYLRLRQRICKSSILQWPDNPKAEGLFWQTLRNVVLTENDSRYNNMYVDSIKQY

CCOCc1nc2c(N)nc3ccccc3c2[nH]1 [CL097]
concentration inducing NF-κB activation (TLR7): 0.4 μM and 0.1 μg/ml | concentration inducing NF-κB activation (TLR8): 4 μM and 1 μg/ml
